Laboratory results: paper PMC12037037 (Proceedings of the National Academy of Sciences of the …, 2025)

Protein sequences, listed by entry. Tags and fused reporters are not part of them. Chains listed by the source or under a name are the forms on record and can include a tag or linker.
UniProt P28223, with tags, fused parts or gaps S242A: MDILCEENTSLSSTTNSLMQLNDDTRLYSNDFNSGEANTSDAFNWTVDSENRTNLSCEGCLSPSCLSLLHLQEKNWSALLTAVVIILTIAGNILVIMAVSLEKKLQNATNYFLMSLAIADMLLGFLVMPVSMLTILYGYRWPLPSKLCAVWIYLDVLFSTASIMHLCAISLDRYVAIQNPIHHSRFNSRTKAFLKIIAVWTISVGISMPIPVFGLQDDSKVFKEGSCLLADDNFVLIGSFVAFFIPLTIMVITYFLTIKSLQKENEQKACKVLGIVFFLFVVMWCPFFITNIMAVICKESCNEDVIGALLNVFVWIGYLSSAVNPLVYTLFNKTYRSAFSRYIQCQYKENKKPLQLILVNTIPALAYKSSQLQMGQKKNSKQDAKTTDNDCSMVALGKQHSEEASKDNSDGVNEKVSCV
UniProt P28223, with tags, fused parts or gaps: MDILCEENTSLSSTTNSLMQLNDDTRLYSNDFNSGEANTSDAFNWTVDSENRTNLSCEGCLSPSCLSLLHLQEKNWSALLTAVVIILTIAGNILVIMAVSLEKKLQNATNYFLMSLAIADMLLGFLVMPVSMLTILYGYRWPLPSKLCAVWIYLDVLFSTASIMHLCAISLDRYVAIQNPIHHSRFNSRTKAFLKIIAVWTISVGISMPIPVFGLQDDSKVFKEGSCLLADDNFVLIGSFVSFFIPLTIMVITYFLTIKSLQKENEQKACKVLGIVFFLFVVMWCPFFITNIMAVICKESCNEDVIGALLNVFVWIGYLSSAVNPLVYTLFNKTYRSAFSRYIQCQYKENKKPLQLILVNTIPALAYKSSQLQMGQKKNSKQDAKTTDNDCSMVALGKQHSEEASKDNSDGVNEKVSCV
UniProt P28223, whole entry: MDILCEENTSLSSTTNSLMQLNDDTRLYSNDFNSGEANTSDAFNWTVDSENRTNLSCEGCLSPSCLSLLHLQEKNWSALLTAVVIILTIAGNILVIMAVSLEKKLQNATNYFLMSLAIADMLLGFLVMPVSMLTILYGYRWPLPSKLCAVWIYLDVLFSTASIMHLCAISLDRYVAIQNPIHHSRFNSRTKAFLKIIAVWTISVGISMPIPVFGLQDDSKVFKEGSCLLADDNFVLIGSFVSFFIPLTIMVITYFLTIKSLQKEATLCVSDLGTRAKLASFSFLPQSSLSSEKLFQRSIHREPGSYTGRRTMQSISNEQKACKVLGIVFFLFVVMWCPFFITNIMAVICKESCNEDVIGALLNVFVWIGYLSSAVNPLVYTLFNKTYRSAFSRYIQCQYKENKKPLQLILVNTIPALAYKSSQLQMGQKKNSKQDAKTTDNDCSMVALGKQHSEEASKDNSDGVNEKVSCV

Columns and labels:
[1] = target: psychLight S242A^5.46 (murinized variant) (Homo sapiens, UniProt P28223, S242A); assay: PsychLight assay, S242A^5.46 mutant; assay type: cell-based; settings: read-out: psychLight (S242A^5.46): EMax
[2] = target: wild type human 5-HT2A receptor (psychLight2, PSYLI2 cells) (Homo sapiens, UniProt P28223); assay: PsychLight assay, wild type; assay type: cell-based; settings: read-out: psychLight (WT): EMax
[3] = system: cultured rat embryonic cortical neurons; assay: Neuritogenesis assay (Sholl analysis, DIV6); assay type: cell-based
[4] = target: T1, 5-HT2A receptors (Gq activation) (Homo sapiens, UniProt P28223); assay: BRET-based assay of Gq activation; assay type: cell-based; settings: read-out: Gq Activation: EMax
T1 construct: expressed in transfected cells; host or cells: HEK293T (transient)

[5] = system: male C57BL/6J mice; assay: Head-twitch antagonism of an LSD dose response (Transpharmation); assay type: in vivo; settings: LSD 0.03 mg/kg IP, -JRT PreTx; mean ± SEM

CCN(CC)C(=O)[C@@H]1C=C2c3cccc4[nH]cc(c34)C[C@H]2N(C)C1 [LSD, lysergic acid diethylamide]
Emax [1]: 28%
Emax [2]: 44%
Area under the curves of the Sholl plots (Figure S8D) [3]: 1.144 ± 0.0533
Number of primary dendrites (Figure S8B) [3]: 8.063 ± 0.3835
Emax [4]: 63%
Head-twitch response over 20 min (Figure S9) [5]: 11.1 ± 1.32
